Values of other authors in patent US8410049B2, “Methods and kits for preventing hypoglycemia” (Cebix, priority 2009, dated 2013).

Test system: type 2 diabetes patients
Details: type 2 diabetes patients starting insulin therapy, over 4-8 months; cited from earlier work

insulin
Weight gain: 2 to 4 kg
